# Assay results as given in BindingDB's records for doi:10.1007/s00210-001-0505-y (Institut De Recherches Servier, 2002).
# Protein sequences, listed by entry. Tags and fused reporters are not part of them. Lines headed by an entry give the natural chain unless they say otherwise; changes in a name come on top.
# UniProt P41595, whole entry: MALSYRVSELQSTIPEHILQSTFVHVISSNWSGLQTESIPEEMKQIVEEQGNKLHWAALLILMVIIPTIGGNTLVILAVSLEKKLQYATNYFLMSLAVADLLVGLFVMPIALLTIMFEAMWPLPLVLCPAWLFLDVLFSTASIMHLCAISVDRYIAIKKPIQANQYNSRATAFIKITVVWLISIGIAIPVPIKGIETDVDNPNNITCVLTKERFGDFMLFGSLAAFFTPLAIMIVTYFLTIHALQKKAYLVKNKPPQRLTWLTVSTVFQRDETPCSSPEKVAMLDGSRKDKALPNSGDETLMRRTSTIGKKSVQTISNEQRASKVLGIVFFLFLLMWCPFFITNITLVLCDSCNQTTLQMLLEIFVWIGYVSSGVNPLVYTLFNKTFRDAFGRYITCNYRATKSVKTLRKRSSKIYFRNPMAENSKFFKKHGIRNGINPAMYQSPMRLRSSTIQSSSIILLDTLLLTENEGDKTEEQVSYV
# UniProt P28335: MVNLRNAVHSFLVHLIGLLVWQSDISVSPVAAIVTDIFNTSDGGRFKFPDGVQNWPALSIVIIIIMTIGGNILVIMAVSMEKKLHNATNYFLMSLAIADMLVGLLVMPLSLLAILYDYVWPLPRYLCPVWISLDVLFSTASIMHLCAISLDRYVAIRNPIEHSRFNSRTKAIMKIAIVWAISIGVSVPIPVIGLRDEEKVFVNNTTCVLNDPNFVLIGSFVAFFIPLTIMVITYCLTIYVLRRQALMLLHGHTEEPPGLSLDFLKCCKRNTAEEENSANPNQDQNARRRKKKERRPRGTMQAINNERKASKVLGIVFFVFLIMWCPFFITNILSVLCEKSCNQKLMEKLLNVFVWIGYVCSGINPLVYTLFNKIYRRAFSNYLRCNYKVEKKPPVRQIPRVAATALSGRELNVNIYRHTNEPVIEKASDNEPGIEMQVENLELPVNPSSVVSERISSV
# Columns and labels:
# [1] = molecular target: 5-hydroxytryptamine receptor 2B (Homo sapiens, UniProt P41595)
# [2] = molecular target: 5-hydroxytryptamine receptor 2C (Homo sapiens, UniProt P28335)
SMILES,Ki [1] [nM],Ki [2] [nM]
Clc1cccc(N2CCNCC2)c1 [mCPP],12,85.1
CC(N)Cc1c[nH]c2ccc(OCc3cccs3)cc12 (stereo not drawn) [NSC_5311036],3.16,–
